Results from patent publication US9624243B2, “Heterocyclic compounds and methods of their use” (Novartis AG, priority 2012, dated 2017).

Protein sequences, listed by entry. Tags and fused reporters are not part of them.
UniProt P50052, whole entry, species assumed: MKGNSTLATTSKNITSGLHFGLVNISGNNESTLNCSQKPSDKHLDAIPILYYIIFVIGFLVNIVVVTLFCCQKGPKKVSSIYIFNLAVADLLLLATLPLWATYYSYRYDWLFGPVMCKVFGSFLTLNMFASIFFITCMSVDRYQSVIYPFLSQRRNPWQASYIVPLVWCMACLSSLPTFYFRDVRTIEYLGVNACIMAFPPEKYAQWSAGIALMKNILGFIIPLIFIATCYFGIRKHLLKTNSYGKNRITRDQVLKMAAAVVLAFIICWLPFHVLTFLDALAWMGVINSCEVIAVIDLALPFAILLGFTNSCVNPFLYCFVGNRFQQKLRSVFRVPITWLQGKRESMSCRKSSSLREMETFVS

These compounds were tested against AT2 receptor (Homo sapiens (Human), UniProt P50052) (assay: AT2 Receptor Binding). Conditions: HEK293 AT2 receptor transient cell membranes, [125I]-CGP42112A.
Method: 1. Trypsin-EDTA (for Preparation of 100 mL)
• Dissolve trypsin in 2% EDTA and PBS completely; sterilize the solution by passing through a […] membrane filter; store at 4° C.
2. DMEM Medium (for Preparation of 1 L) • The powder was dissolved into 950 mL of distilled water with gentle stirring until the solution becomes clear. • Add. NaHCO3 1.176 g for DMEM medium. • Adjust pH of medium to 0.2˜0.3 below final working pH using 1 M NaOH or 1 M • HCl. Add slowly with stirring. • Dilute to 1 liter with ddH2O. • Sterilize the medium immediately by filtration. • Store at 4° C.
3. TE Buffer • 20 mM Tris-HCl, pH 7.4, • 5 mM EDTA
4. Binding Assay Buffer • 50 mM Hepes, pH 7.4 • 5 mM MgCl2 • 1 mM CaCl2 • 0.2% BSA
5. Wash Buffer • 50 mM Hepes, pH 7.4 Procedures for HEK293AT2 Receptor Transient Cell Transfection • Cells were plated into 150 mm dish at 50% density for transient transfection. Cells were ready for transfection after overnight incubation (the confluence reaches around 80%). • 75 μL Lipofectamine™2000 diluted in 6.25 mL OptiMEM I Reduced Serum Medium, was mixed gently, and incubated at room temperature for 5 minutes. 50 μg expression plasmid DNA diluted in 6.25 mL OptiMEM I Reduced Serum Medium without serum was mixed gently. • After the 5 minute incubation, the diluted DNA was combined with the diluted Lipofectamine™2000 (total volume is 12.5 mL). The mixture was mixed gently and incubated for 30 minutes at room temperature to allow the DNA-Lipofectamine™2000 complexes to form. • The 12.5 mL DNA-Lipofectamine™2000 complexes were added into the 150 mm dish and mixed gently by rocking the dish back and forth. • The cells were incubated at 37° C. with 5% CO2 for 48 hours. Cells were collected and stored frozen at −80° C. Procedures for HEK293AT2 Receptor Cell Membrane Preparation • Frozen HEK293AT2 receptor (transient transfected) cells were homogenized in ice cold TE buffer for 10s. • The homogenate was centrifuged at 25,000 g for 30 minutes. • The pellet was resuspended in ice cold tissue buffer. • Protein concentrations were determined using Bradford assay method with BSA as standard. • The membrane protein was frozen under −80° C. Compound Preparation
Solutions of all compounds were prepared bymicroplate liquid handling equipment such as Janus or Precision 2000. Compounds, dissolved in DMSO were stored in a Freezer. Compounds were prepared from 30 mM in 100% DMSO.
Step 1: Dose Plate Preparation (96 Well Plate)
• Add the 3 μL [30 mM] compound stock to column 1 on the plate. • Add 15 μL of 100% DMSO to column 1. • Add 10.81 μL of 100% DMSO to column 2-12. • Transfer 5 μL from column 1 into column 2 (half log dilution). • Transfer 5 μL from column 2 into column 3 (half log dilution). • Transfer 5 μL from column 3 into column 4 (half log dilution). • Transfer 5 μL from column 4 into column 5 (half log dilution). • Transfer 5 μL from column 5 into column 6 (half log dilution). • Transfer 5 μL from column 6 into column 7 (half log dilution). • Transfer 5 μL from column 7 into column 8 (half log dilution). • Transfer 5 μL from column 8 into column 9 (half log dilution). • Transfer 5 μL from column 9 into column 10 (half log dilution) • Transfer 5 μL from column 10 into column 11 (half log dilution) • Transfer 5 μL from column 11 into column 12 (half log dilution).
All the compounds were diluted using Precision 2000 microplate liquid handling equipment. The top concentration of compound was 5 mM with 100% DMSO.
Step 2: Working Plate Preparation (96 Well Plate) […]
Compound `O=C(O)[C@@H]1C[C@@H](OCCCc2ccccc2)CN1C(=O)C(c1ccccc1)c1ccccc1` [Compound 9, (2S,4R)-1-(2,2-diphenylacetyl)-4-(3-phenylpropoxy)pyrrolidine-2-carboxylic acid] has an IC50 of 98.6 nM.
Compound `O=C(O)[C@H]1C[C@@H](OCCCc2ccccc2)CN1C(=O)C(c1ccccc1)c1ccccc1` [Compound 76, (2R,4R)-1-(2,2-diphenylacetyl)-4-(3-phenylpropoxy)-pyrrolidine-2-carboxylic acid] has an IC50 of 3600 nM.
For `CN(C[C@@H]1C[C@H]1c1ccccc1)[C@H]1C[C@@H](C(=O)O)N(C(=O)C(c2ccccc2)c2ccccc2)C1` (racemic) [Compound 63, (2S,4S)-1-(2,2-diphenylacetyl)-4-(methyl((2-phenylcyclopropyl)methyl)amino)pyrrolidine-2-carboxylic acid], the IC50 was 483 nM.
`O=C(O)[C@@H]1C[C@@H](OC/C=C/c2ccccc2)CN1C(=O)C(c1ccccc1)c1ccccc1` [Compound 8, (2S,4R)-4-(cinnamyloxy)-1-(2,2-diphenylacetyl)pyrrolidine-2-carboxylic acid] gave an IC50 of 512 nM.
Compound `O=C(O)[C@@H]1C[C@H](OC/C=C/c2ccccc2)CN1C(=O)C(c1ccccc1)c1ccccc1` [Compound 5, (2S,4S)-4-cinnamyloxy-1-(2,2-diphenylacetyl)pyrrolidine-2-carboxylic acid] has an IC50 of 90 nM.
